Compounds with a hit are over-represented: about 4.2% of the library has one in this group of screens.
HDAC3 inhib = human HDAC3 inhibition | inhibition, % at 8.3 µM | hit rate 0.15% among 320,000 | recombinant HDAC3, fluorogenic peptide/trypsin coupled, fluorescence; in the data active = inhibition above about 26%, passing the limit was not always enough
Yeast UUG start = alters start codon recognition fidelity in yeast | S. cerevisiae UUG-firefly luciferase reporter, luminescence/redox ratio | activity score, % at 18.7 µM | hit rate 0.13% among 350,000 | AID 602363;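 active means replicate mean at a twofold rise or more, about +100% in these data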;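 further: firefly luciferase made from a UUG start codon reports start codon fidelity; reporter light over untreated wells divided by growth signal over untreated wells; some hits fall short of that in this replicate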
NALP1 yeast inh = inhibitors of NALP1 inflammasome in yeast; S. cerevisiae NALP1/ASC/caspase-1 growth, X-gal OD620, 72 h; inhibition, % at 10 µM; hit rate 0.61% among 280,000; in the data active = inhibition mostly above about 24%, no sharp cut-off; inactive = mostly below about 32%
MC4R antag cAMP = antagonists of human melanocortin 4 receptor (MC4R); P32245; MC4R-expressing cells, MTII-stimulated cAMP, LANCE TR-FRET; inhibition, % at 6.5 µM; hit rate 0.48% among 360,000;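 active = inhibition above its plate's cutoff, the mean of tested wells on that plate plus 3 SD, cut at about 29% in these data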;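 also: 0% = Melanotan II alone and 100% = Melanotan II plus saturating MCL0020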
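Material: U2OS-MC4R stable cell line | Reagent: Melanotan II challenge after compound preincubation | Doses: One concentration, 6.5 µM nominal | Incubation: 30-min compound preincubation, 1-h Melanotan II challenge, 1-h detection, room temperature | Signal: TR-FRET cAMP assay | Replicates: One well per compound, no replicates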
ALR inh = inhibitors of human sulfhydryl oxidase ALR; 290,000 tested, 3.8% active; inhibition, % (test concentration not listed); AID 485317; P55789; purified ALR, DTT oxidation, H2O2 HRP-luminol luminescence;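 active = mean and each replicate at 75% or more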;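 also: stock transfer was 7.5 nL into about 7.5 µL; 0% = neutral wells and 100% = wells with inactivated enzyme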
MC4R ag barr = agonists of human melanocortin 4 receptor (MC4R) beta-arrestin | U2OS MC4R beta-arrestin complementation, luminescence; percent of melanotan II response, DMSO zero | activation, % at 8.9 µM | hit rate 0.98% among 360,000;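 active = activation above a per-plate cutoff, the mean activation of sample wells on that plate plus 3 SD, cut at about 8% in these data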
* marks the source's active call; other numbers are inactive results; / = no result given.

Structure,HDAC3 inhib,MC4R antag cAMP,Yeast UUG start,ALR inh,NALP1 yeast inh,MC4R ag barr
Cc1cnc(NC(=O)CSc2ccccc2)s1,1.6,20.8,0.0,-3.6,14.7,-1.0
CCCN1C[C@H](C)[C@H](OC)CN(C)C(=O)c2ccc(NC(=O)c3cccc(OC)c3)cc2OC[C@@H]1C,/,/,-1.1,/,/,/
O=C1c2ccccc2NC(c2ccc(O)cc2)N1/N=C/c1ccc(O)cc1 (stereo not given),-4.0,3.8,/,99.4*,5.4,-1.8
O=C1c2ccccc2NC(c2ccccc2)N1/N=C/c1ccccc1 (stereo not given),2.3,1.1,-30.7,3.9,8.4,-1.0
Cc1sc(NC(=O)CSc2nc(N)cc(N)n2)c(C#N)c1C,-2.9,5.4,/,6.4,/,0.1
Cc1ccc(NC(=O)CSc2nnc(C)c(=O)[nH]2)cc1C,4.3,17.1,/,95.1*,-9.4,0.0
Cc1nnc(SCC(=O)Nc2cccc(C(F)(F)F)c2)[nH]c1=O,-1.9,14.6,-12.6,98.2*,9.4,-0.9
Cc1sc(NC(=O)CSc2nnc(C)c(=O)[nH]2)c(C#N)c1C,-5.2,5.1,-22.9,98.4*,-7.9,0.8
Cc1cccc(C)c1NC(=O)CSc1nnc(C)c(=O)[nH]1,1.2,5.3,/,-4.7,8.2,-1.4
C[C@@H]1CCCCO[C@H](CN(C)S(=O)(=O)c2cccs2)[C@H](C)CN([C@@H](C)CO)C(=O)c2cc(NC(=O)C3CCCCC3)ccc2O1,/,/,-4.4,/,/,/
COc1ccccc1-c1ccc2c(c1)O[C@H](CN(C)C(=O)c1ccccc1)[C@@H](C)CN([C@H](C)CO)S2(=O)=O,/,/,20.0,/,/,/
C#CCSc1nncn1C(=O)/C=C/c1ccccc1,73.4*,/,/,11.0,7.4,/
O=C(/C=C/c1ccccc1)N1CCC[C@H]1CO,-2.4,3.1,-17.2,-2.3,13.5,-2.8
Cc1ccc(-c2nc3ncccn3c2NC2CCCCC2)o1,1.0,10.8,-17.2,98.7*,6.0,-0.2
Brc1ccc(-c2nc3ncccn3c2Nc2ccc3c(c2)OCCO3)o1,2.7,2.4,/,98.5*,11.1,-2.0
COc1ccc(-c2nc3ncccn3c2Nc2ccc3c(c2)OCCO3)cc1,/,4.0,-1.9,/,36.0,-0.5
Cc1ccc(-c2nc3ncccn3c2Nc2ccc3c(c2)OCCO3)o1,4.1,8.6,-30.6,98.9*,-13.5,-2.7
Clc1ccc(-c2nc3ncccn3c2Nc2ccc3c(c2)OCCO3)cc1,-0.4,0.1,-14.1,-9.8,-9.0,0.1
C[C@@H]1CCCCO[C@@H](CN(C)Cc2ccncc2)[C@H](C)CN([C@@H](C)CO)C(=O)c2cc(NC(=O)C3CCCCC3)ccc2O1,/,/,3.7,/,/,/
CCCc1ccc(O)c(N=Cc2cc(Br)cc(OCC)c2O)c1,11.2,14.8,/,2.3,2.3,11.5*

Structure,HDAC3 inhib,MC4R antag cAMP,Yeast UUG start,ALR inh,NALP1 yeast inh,MC4R ag barr
C[C@@H]1CN([C@@H](C)CO)C(=O)Cc2cc(NS(=O)(=O)c3ccc(F)cc3)ccc2O[C@H]1CN(C)S(=O)(=O)c1cccs1,/,/,22.1,/,/,/
CCC(C)N(C(=O)CSc1ccc(NC(C)=O)cc1)C1CCS(=O)(=O)C1 (stereo not given),-2.2,6.4,/,88.4*,6.1,-3.2
CCC(C)N(C(=O)COC(=O)CSc1ccc(C)c(C)c1)C1CCS(=O)(=O)C1 (stereo not given),4.6,-3.4,-5.1,-11.6,/,-1.3
O=C(COC(=O)Cc1cccc(C(F)(F)F)c1)NC(=O)NC1CCCC1,6.2,4.0,-8.3,-2.1,/,8.3*
O=c1c([N+](=O)[O-])c(O)c2ccccc2n1Cc1ccccc1,-0.4,8.2,-10.9,98.7*,-4.1,-2.6
COc1ccc(CNc2cc([N+](=O)[O-])ccc2OC)cc1,7.0,1.3,-3.6,36.1,10.8,-2.7
COc1ccc(C)cc1NCc1ccc(OC)c(C)c1OC,-2.2,1.4,-9.1,76.8*,-1.3,0.8
COc1ccc(C)cc1NCc1ccc([N+](=O)[O-])cc1,1.3,0.7,-7.8,98.7*,10.7,-1.4
COc1ccc(-c2ccccc2)cc1NCc1ccccc1C,-1.5,8.4,-6.3,/,35.9,-2.9
CC(c1ccco1)N(C(=O)c1ccc(C(F)(F)F)cc1)c1ccccn1 (stereo not given),-4.2,2.8,-8.1,1.8,13.0,-1.5
Cc1ccc(C(=O)N(c2ccccn2)C(C)c2ccco2)cc1C (stereo not given),3.6,-3.7,-7.8,97.1*,-7.7,-2.4
O=C(c1cccs1)c1no[n+]([O-])c1C(=O)c1cccs1,8.0,4.7,14.9,42.3,26.8,17.4*
COc1ccc(C(=O)c2no[n+]([O-])c2C(=O)c2ccc(OC)cc2)cc1,5.0,1.5,/,/,20.7,8.0
CN(C)CC(=O)Nc1ccc2c(c1)[C@H]1C[C@@H](CC(=O)NCc3cccnc3)O[C@H](CO)[C@H]1O2,/,/,-17.7,/,/,/
COc1ccccc1CNc1ncc(-c2ccc(F)cc2)n1C,0.2,12.7,4.7,97.7*,7.8,0.1
Cn1c(-c2ccc(F)cc2)cnc1NCc1cccc(F)c1,-0.2,-5.4,-13.6,/,35.1,2.3
Cn1c(-c2cccc(Br)c2)cnc1NCc1cccnc1,-2.9,-2.4,-0.4,85.4*,36.2,-2.3
COc1cc(CNc2ncc(-c3ccc(Br)cc3)n2C)cc(OC)c1O,-8.9,12.8,-0.3,85.6*,16.7,-0.6
COc1ccccc1CNc1ncc(-c2ccccc2)n1C,/,13.1,-6.6,/,35.9,-2.0
CC(C)c1cn(CC[C@H]2CC[C@@H](NC(=O)c3cccc(F)c3)[C@H](CO)O2)nn1,/,/,-7.4,/,/,/

HDAC3 inhib: entries above that show a hit.
Structure,HDAC3 inhib,MC4R antag cAMP,Yeast UUG start,ALR inh,NALP1 yeast inh,MC4R ag barr
C#CCSc1nncn1C(=O)/C=C/c1ccccc1,73.4*,/,/,11.0,7.4,/

Ordered by value in MC4R ag barr (highest first): three of the compounds above.
smiles | HDAC3 inhib | MC4R antag cAMP | Yeast UUG start | ALR inh | NALP1 yeast inh | MC4R ag barr
O=C(COC(=O)Cc1cccc(C(F)(F)F)c1)NC(=O)NC1CCCC1 | 6.2 | 4.0 | -8.3 | -2.1 | / | 8.3*
CCC(C)N(C(=O)COC(=O)CSc1ccc(C)c(C)c1)C1CCS(=O)(=O)C1 (stereo not given) | 4.6 | -3.4 | -5.1 | -11.6 | / | -1.3
O=c1c([N+](=O)[O-])c(O)c2ccccc2n1Cc1ccccc1 | -0.4 | 8.2 | -10.9 | 98.7* | -4.1 | -2.6

Other entries follow:
Structure,HDAC3 inhib,MC4R antag cAMP,Yeast UUG start,ALR inh,NALP1 yeast inh,MC4R ag barr
Cc1noc(C)c1NC(=O)Nc1ccc2c(c1)CC(=O)N([C@H](C)CO)C[C@H](C)[C@@H](CN(C)Cc1ccc(C(F)(F)F)cc1)O2,/,/,17.0,/,/,/
CCc1cc2ccc(C)cc2nc1SCC(=O)NC1CCCC1,0.3,9.8,-2.8,/,15.5,1.2
CCc1cc2ccc(C)cc2nc1SCC(=O)c1ccc(NC(C)=O)cc1,68.5*,1.4,-20.0,-4.9,-0.5,-1.9
C[C@@H]1CCCCO[C@H](CN(C)S(=O)(=O)c2cccs2)[C@H](C)CN([C@@H](C)CO)C(=O)c2cc(NS(=O)(=O)c3ccc(F)cc3)ccc2O1,/,/,-8.1,/,/,/
O=S(=O)(CC(CN1CCCC1)N1CCCC1)c1ccc2ccccc2c1 (stereo not given),1.3,12.0,-4.5,-0.6,51.7*,-0.9
C[C@@H]1CN([C@H](C)CO)C(=O)c2cc(C#CC3CC3)cnc2O[C@@H]1CN(C)C(=O)c1ccccc1,/,/,-1.0,/,/,/
COc1ccc(C(C2C(=O)CC(C)(C)CC2=O)C2C(=O)CC(C)(C)CC2=O)cc1,4.3,12.9,/,96.8*,-51.3,0.5
COc1ccc(C(C2C(=O)CC(C)(C)CC2=O)C2C(=O)CC(C)(C)CC2=O)cc1COCC(F)(F)F,0.8,14.1,-16.7,98.6*,25.5,-0.4
COc1ccc(NC(=O)Nc2ccc3c(c2)C(=O)N([C@H](C)CO)C[C@H](C)[C@@H](CN(C)C(=O)Nc2ccc(C(F)(F)F)cc2)OCCCC[C@H](C)O3)cc1,/,/,-10.9,/,/,/

High-throughput results from PubChem BioAssay.
